From US20250051277A1, “DELIVERY OF THERAPEUTIC ALKALOID COMPOUNDS” (Sensorium Therapeutics, Inc., priority 2021, published 2025)

Target: SERT (Homo sapiens (Human), UniProt P31645)
Assay: cell-based
Format: cell-based
Conditions: not given

Structure (SMILES)	IC50
COc1ccc([C@@]23CC/C(=N\NC(=O)NC[C@H]4CC[C@H](C(=O)O)CC4)C[C@@H]2N(C)CC3)cc1OC [Compound 258, 4-[[[[(3aS,7aS)-3a-(3,4-dimethoxyphenyl)-1-methyl-2,3,4,5,7,7a-hexahydroindol-6-ylidene]amino]carbamoylamino]methyl]cyclohexanecarboxylicacid]	< 50 nM
COc1ccc([C@@]23CCC(=NNC(=O)CC(CC(=O)O)CC(C)C)C[C@@H]2N(C)CC3)cc1OC (stereo partly drawn) [Compound 242, 3-[2-[2-[(3aS,7aS)-3a-(3,4-dimethoxyphenyl)-1-methyl-2,3,4,5,7,7a-hexahydroindol-6-ylidene]hydrazino]-2-oxo-ethyl]-5-methyl-hexanoic acid]	< 50 nM
COc1ccc([C@@]23CCC(=NNC(=O)c4ccncc4)C[C@@H]2N(C)CC3)cc1OC [Compound 157, N-[[(3aS,7aS)-3a-(3,4-dimethoxyphenyl)-1-methyl-2,3,4,5,7,7a-hexahydroindol-6-ylidene]amino]pyridine-4-carboxamide]	< 50 nM

Same assay, conditions: read-out: SERT IC50

Structure (SMILES)	IC50
COc1ccc([C@@]23CCN(C)[C@@H]2CC2(CC3)OCCS2)cc1OC (stereo partly drawn) [Compound 070, (3′aR,7′aR)-3′a-(3,4-dimethoxyphenyl)-1′-methyl-spiro[1,3-oxathiolane-2,6′-2,3,4,5,7,7a-hexahydroindole]]	100 to 500 nM
COc1ccc([C@@]23CCC(=NNCCc4ccccc4)C[C@@H]2N(C)CC3)cc1OC [Compound 159, N-[[(3aS,7aS)-3a-(3,4-dimethoxyphenyl)-1-methyl-2,3,4,5,7,7a-hexahydroindol-6-ylidene]amino]-2-phenyl-ethanamine]	< 50 nM
COc1cccc(C2COC3(CC[C@@]4(c5ccc(OC)c(OC)c5)CCN(C)[C@H]4C3)O2)c1 (stereo partly drawn) [Compound 111, (3′aS,7′aS)-3′a-(3,4-dimethoxyphenyl)-4-(3-methoxyphenyl)-1′-methyl-spiro[1,3-dioxolane-2,6′-2,3,4,5,7,7a-hexahydroindole]]	< 50 nM
COc1ccc([C@]23CCN(C)[C@H]2CC2(CC3)OC[C@@H](c3ccccc3)O2)cc1OC (stereo partly drawn) [Compound 081, (3′aS,4R,7′aS)-3′a-(3,4-dimethoxyphenyl)-1′-methyl-4-phenyl-spiro[1,3-dioxolane-2,6′-2,3,4,5,7,7a-hexahydroindole]]	< 50 nM
